Experimental data reported in PMC9140068, “Generation of HepG2 Cells with High Expression of Multiple Drug-Metabolizing Enzymes for Drug Discovery Research Using a PITCh System” (Cells, 2022).

Sequences of proteins named here, by UniProt entry; tags and fusion partners are left off.
UniProt P08684, whole entry: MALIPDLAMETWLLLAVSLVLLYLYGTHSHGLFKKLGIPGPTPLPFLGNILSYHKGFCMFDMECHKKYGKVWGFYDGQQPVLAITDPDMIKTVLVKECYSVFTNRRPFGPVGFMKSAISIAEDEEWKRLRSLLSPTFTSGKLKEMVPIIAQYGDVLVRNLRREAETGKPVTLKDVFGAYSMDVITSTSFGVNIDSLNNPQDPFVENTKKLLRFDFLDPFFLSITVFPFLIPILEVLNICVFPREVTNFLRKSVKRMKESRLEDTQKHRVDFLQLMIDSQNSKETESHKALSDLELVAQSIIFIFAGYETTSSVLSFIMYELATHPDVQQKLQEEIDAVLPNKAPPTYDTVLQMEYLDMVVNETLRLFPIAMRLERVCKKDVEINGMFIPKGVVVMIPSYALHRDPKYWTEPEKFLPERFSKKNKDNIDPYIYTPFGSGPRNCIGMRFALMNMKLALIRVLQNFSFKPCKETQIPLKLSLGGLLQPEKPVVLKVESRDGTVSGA

Molecular target: T1, CYP3A4 (Homo sapiens, UniProt P08684)
T1 construct: P2A self-cleaving peptide (linker to POR in the polycistronic cassette) (C); expressed in transfected cells
Assay: CYP3A4 inhibition in CYPs–UGT1A1 KI-HepG2 cells (1′-hydroxy midazolam formation, HPLC)
Assay type: in vitro ADME
Conditions: 10 μM inhibitor, 10 μM midazolam, p < 0.01
Protocol: The cells were cultured on 48-well plates, then washed with pH 7.4 HBSS containing 10 mM HEPES and 25 mM glucose. […] After preincubation, HBSS containing 10 μM phenacetin, 10 μM diclofenac, 50 μM S-mephenytoin, 1 μM bufuralol, 10 μM midazolam, 10 μM 7′-hydroxy coumarin, or 1 μM propranolol was added, and the cells were incubated at 37 ℃ for 360 min. […] The samples were collected from the supernatant, then immediately mixed with the same volume of acetonitrile. The mixed solutions were centrifuged for 5 min at 15,000× g. […] HPLC analysis was performed using a LO-20AD SPD + RF (DGU-20A, LC-20AD, RF-20A xs, SIL-20AC, CBM-20A, SPD-20A, CTO-20AC; Shimadzu). The concentrations of each metabolite were calculated according to the respective standard followed by normalization to the protein content per well.
A value of p < 0.05 was considered statistically significant. Using the SigmaPlot v.
The quantity of metabolites (4′-hydroxy diclofenac, 1′-hydroxy bufuralol, and 1′-hydroxy midazolam; these compounds are metabolites for CYP2C9, 2D6, and 3A4, respectively) were measured by HPLC. Data represent the means ± SD (n = 3, technical replicates). Statistical analyses were performed using the unpaired two-tailed Student’s t test (** p < 0.01). […]

- CYP3A4 activity in the presence of the inhibitor: significantly decreased
SMILES: CCC(C)n1ncn(-c2ccc(N3CCN(c4ccc(OCC5COC(Cn6cncn6)(c6ccc(Cl)cc6Cl)O5)cc4)CC3)cc2)c1=O (stereo not shown) [itraconazole]
